# Cyclic peptide permeability, from CycPeptMPDB

Collected by the curators of CycPeptMPDB (Li et al. 2023) from Townsend et al. 2020, doi:10.26434/chemrxiv.13335941.v1.

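Lipid, pH, incubation time, direction and concentration are not recorded in the data file. Other peptides of the study may be missing here. Entries at the database's floor value (log10 P of -10) are not listed.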

PAMPA is the parallel artificial membrane permeability assay, which has no cells and reads passive diffusion.
Permeability is given as log10 of P in cm/s; higher (less negative) is more permeable.

PAMPA (log10 cm/s)	compound
-5.47	CC(C)C[C@@H]1NC(=O)[C@H]2CCCN2C(=O)[C@H](CC(C)C)N(C)C(=O)[C@H](CC(C)C)N(C)C(=O)[C@@H](C)N(C)C(=O)[C@H](Cc2ccccc2)NC1=O
-6.09	CC(C)C[C@H]1NC(=O)[C@H]2CCCN2C(=O)C[C@H](Cc2ccccc2)NC(=O)CN(Cc2ccccc2)C(=O)C[C@H](Cc2ccccc2)NC(=O)[C@H]2CCCN2C(=O)[C@H](Cc2ccccc2)NC1=O
-6.04	CC(C)C[C@@H]1NC(=O)[C@@H](CC(C)C)NC(=O)[C@@H](C)NC(=O)[C@H]2CCCN2C(=O)[C@H](Cc2ccccc2)NC(=O)CN(Cc2ccccc2)C(=O)[C@H]2CCCN2C1=O
-5.81	CC(C)C[C@H]1C(=O)N(C)[C@@H](CC(C)C)C(=O)N2CCC[C@H]2C(=O)N(Cc2ccccc2)CC(=O)N[C@@H](Cc2ccccc2)C(=O)N2CCC[C@@H]2C(=O)N[C@@H](C)C(=O)N1C
-5.48	CC(C)C[C@@H]1C(=O)N2CCC[C@@H]2C(=O)N[C@H](CC(C)C)C(=O)N[C@@H](Cc2ccccc2)C(=O)N2CCC[C@H]2C(=O)N[C@@H](Cc2ccccc2)CC(=O)N[C@H](CC(C)C)C(=O)N1C
-5.21	CCCN1CC(=O)N(Cc2ccccc2)CC(=O)N(C)[C@@H](CC(C)C)C(=O)N2CCC[C@H]2C(=O)N(C)[C@@H](CC(C)C)C(=O)N[C@@H](Cc2ccccc2)C(=O)N2CCC[C@H]2C1=O
-5.60	CCCN1CC(=O)N(C)[C@H](CC(C)C)C(=O)N[C@@H](Cc2ccccc2)CC(=O)N2CCC[C@H]2C(=O)N(C)[C@H](CC(C)C)C(=O)N[C@@H](Cc2ccccc2)C(=O)N2CCC[C@@H]2C1=O
-5.00	CC(C)C[C@@H]1C(=O)N(C)[C@@H](CC(C)C)C(=O)N2CCC[C@H]2C(=O)N(C)[C@@H](CC(C)C)C(=O)N[C@@H](Cc2ccccc2)C(=O)N[C@@H](C)C(=O)N1C
-5.92	CC(C)C[C@@H]1C(=O)N(Cc2ccccc2)CC(=O)N2CCC[C@H]2C(=O)N(Cc2ccccc2)CC(=O)N[C@@H](Cc2ccccc2)C(=O)N2CCC[C@H]2C(=O)N(C)[C@@H](C)C(=O)N1C
-6.31	CC(C)C[C@@H]1NC(=O)[C@@H](CC(C)C)NC(=O)[C@@H](C)NC(=O)[C@H](Cc2ccccc2)NC(=O)[C@H](CC(C)C)N(C)C(=O)[C@@H]2CCCN2C1=O
-5.06	CC(C)C[C@@H]1C(=O)N2CCC[C@H]2C(=O)N(C)[C@@H](CC(C)C)C(=O)N[C@@H](Cc2ccccc2)C(=O)N2CCC[C@H]2C(=O)N(C)[C@@H](C)C(=O)N[C@H](CC(C)C)C(=O)N1C
-5.45	CC(C)C[C@@H]1C(=O)N(Cc2ccccc2)CC(=O)N2CCC[C@H]2C(=O)N(C)[C@H](CC(C)C)C(=O)N[C@@H](Cc2ccccc2)C(=O)N2CCC[C@@H]2C(=O)N[C@H](C)C(=O)N1C
-5.02	CCCN1CC(=O)N[C@H](CC(C)C)C(=O)N(C)[C@@H](CC(C)C)C(=O)N2CCC[C@@H]2C(=O)N[C@H](CC(C)C)C(=O)N[C@@H](Cc2ccccc2)C1=O
-5.86	CC(C)C[C@@H]1C(=O)N(Cc2ccccc2)CC(=O)N2CCC[C@@H]2C(=O)N[C@H](CC(C)C)C(=O)N[C@@H](Cc2ccccc2)C(=O)N2CCC[C@@H]2C(=O)N[C@H](C)C(=O)N1C
-5.21	CC(C)C[C@H]1NC(=O)[C@@H](C)N(C)C(=O)[C@H](Cc2ccccc2)NC(=O)[C@H](CC(C)C)N(C)C(=O)[C@H]2CCCN2C(=O)CN(Cc2ccccc2)C1=O
-5.69	CC(C)C[C@@H]1NC(=O)[C@H](C)N(C)C(=O)[C@H]2CCCN2C(=O)[C@H](Cc2ccccc2)NC(=O)[C@@H](CC(C)C)N(C)C(=O)[C@@H]2CCCN2C(=O)[C@H](CC(C)C)NC1=O
-5.81	CCCN1CC(=O)N[C@H](CC(C)C)C(=O)N(Cc2ccccc2)CC(=O)N2CCC[C@H]2C(=O)N(Cc2ccccc2)CC(=O)N[C@@H](Cc2ccccc2)C(=O)N2CCC[C@H]2C1=O
-6.01	CCCN1CC(=O)N[C@@H](CC(C)C)C(=O)N(C)[C@H](CC(C)C)C(=O)N2CCC[C@@H]2C(=O)N(C)[C@H](CC(C)C)C(=O)N[C@@H](Cc2ccccc2)C(=O)N2CCC[C@H]2C1=O
-6.08	CC(C)C[C@@H]1NC(=O)[C@@H]2CCCN2C(=O)[C@H](CC(C)C)NC(=O)CN(Cc2ccccc2)C(=O)[C@@H](C)NC(=O)[C@H](Cc2ccccc2)NC1=O
-5.73	CC(C)C[C@H]1NC(=O)[C@@H]2CCCN2C(=O)[C@H](CC(C)C)N(C)C(=O)[C@H](CC(C)C)N(C)C(=O)[C@H](C)N(C)C(=O)[C@H]2CCCN2C(=O)[C@H](Cc2ccccc2)NC1=O
-6.79	CC(C)C[C@H]1NC(=O)[C@@H](C)NC(=O)[C@H](Cc2ccccc2)NC(=O)[C@H](CC(C)C)N(C)C(=O)[C@@H]2CCCN2C(=O)[C@@H](CC(C)C)NC1=O
-6.62	CCCN1CC(=O)N[C@@H](CC(C)C)C(=O)N[C@@H](CC(C)C)C(=O)N2CCC[C@@H]2C(=O)N[C@@H](CC(C)C)C(=O)N[C@@H](Cc2ccccc2)C1=O
-5.20	CC(C)C[C@@H]1C(=O)N2CCC[C@H]2C(=O)N(C)[C@@H](CC(C)C)C(=O)N[C@@H](Cc2ccccc2)C(=O)N2CCC[C@H]2C(=O)N[C@H](C)C(=O)N(C)[C@@H](CC(C)C)C(=O)N1C

Again, the 4 entries with the lowest PAMPA:

compound	PAMPA (log10 cm/s)
CC(C)C[C@H]1NC(=O)[C@@H](C)NC(=O)[C@H](Cc2ccccc2)NC(=O)[C@H](CC(C)C)N(C)C(=O)[C@@H]2CCCN2C(=O)[C@@H](CC(C)C)NC1=O	-6.79
CCCN1CC(=O)N[C@@H](CC(C)C)C(=O)N[C@@H](CC(C)C)C(=O)N2CCC[C@@H]2C(=O)N[C@@H](CC(C)C)C(=O)N[C@@H](Cc2ccccc2)C1=O	-6.62
CC(C)C[C@@H]1NC(=O)[C@@H](CC(C)C)NC(=O)[C@@H](C)NC(=O)[C@H](Cc2ccccc2)NC(=O)[C@H](CC(C)C)N(C)C(=O)[C@@H]2CCCN2C1=O	-6.31
CC(C)C[C@H]1NC(=O)[C@H]2CCCN2C(=O)C[C@H](Cc2ccccc2)NC(=O)CN(Cc2ccccc2)C(=O)C[C@H](Cc2ccccc2)NC(=O)[C@H]2CCCN2C(=O)[C@H](Cc2ccccc2)NC1=O	-6.09